Values quoted from earlier work in PMC12053642, “Oral PRI-002 treatment in patients with MCI or mild AD: a randomized, double-blind phase 1b trial” (Nature Communications, 2025).

Test system: early AD patients
Details: over 18 months, on average; cited from earlier work
From the text: After two decades of setbacks, the United States Food and Drug Administration (USFDA) full approvals for lecanemab[1] and donanemab[2] presents the beginning of a new decade for AD patients with several more drug candidates holding promise for marketing authorisation in the foreseeable future.

## aducanumab: anti-amyloid therapeutic antibody, targets Aβ oligomers and Aβ plaques [reference compound]
  deceleration of progression measured by CDR-SB versus placebo: up to 36%
